Source: patent US20250340608A1 (PROTAGONIST THERAPEUTICS, published 2025)

T1: human ferroportin (SLC40A1) fused in frame with GFP, stably expressed on HEK293 cells (human, UniProt Q9NP59 1-571)
T1 sequence (looked up): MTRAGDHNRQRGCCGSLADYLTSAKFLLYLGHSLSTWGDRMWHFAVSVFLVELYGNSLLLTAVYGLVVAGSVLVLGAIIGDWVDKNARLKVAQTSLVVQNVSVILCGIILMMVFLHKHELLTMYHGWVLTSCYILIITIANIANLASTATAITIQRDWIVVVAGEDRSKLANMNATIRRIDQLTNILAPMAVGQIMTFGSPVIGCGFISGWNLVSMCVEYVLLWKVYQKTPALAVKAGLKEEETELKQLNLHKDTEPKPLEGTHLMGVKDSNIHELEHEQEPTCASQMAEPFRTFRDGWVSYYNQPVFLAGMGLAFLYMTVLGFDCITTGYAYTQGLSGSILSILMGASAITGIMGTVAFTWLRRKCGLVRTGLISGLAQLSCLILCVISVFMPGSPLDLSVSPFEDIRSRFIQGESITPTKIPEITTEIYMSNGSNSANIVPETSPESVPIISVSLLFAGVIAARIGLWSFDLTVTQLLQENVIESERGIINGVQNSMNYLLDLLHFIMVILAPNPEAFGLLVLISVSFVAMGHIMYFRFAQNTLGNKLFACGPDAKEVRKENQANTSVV

T2: human ferroportin (SLC40A1) fused in frame with GFP, stably expressed in HEK293 cells (human, UniProt Q9NP59 1-571)
T2 sequence (looked up): T1 sequence (looked up)

B1: Hepcidin (Hy-DTHFPIC(1)IFC(2)C(3)GC(2)C(4)HRSKC(3)GMC(4)C(1)KT-OH) (peptide)
peptide: DTHFPICIFCCGCCHRSKCGMCCKT
modifications: four disulfide bridges: C(1)-C(1), C(2)-C(2), C(3)-C(3), C(4)-C(4); free N-terminus (Hy-), C-terminal -OH
B2: Compound 346 (peptide)
peptide: DTHFPCIKFK
modifications: N-terminal isovaleric acid; DIG linker through K10; C-terminal NH2

Tests used:
[1] = target: T1, human ferroportin (SLC40A1) fused in …; test: cell-based or functional assay
[2] = target: T2, human ferroportin (SLC40A1) fused in …; test: cell-based or functional assay

Binder | EC50 (nM), ferroportin degradation (loss of ferroportin-GFP fluorescence) [1] [nM] | EC50 (nM) (n > 3) [2]
B1 | 169 | –
B2 | – | 15
